Test [1] concerns the target PARKIN (unphosphorylated, WT) (UniProt O60260). Kind of test: BLI. Background: In BLI a coated tip is dipped into the sample, and binding shifts an interference pattern.
Test [2] deals with PARKIN with K161, R163 or K211 individually mutated (Figure S5F).
Test [3] has as its target PARKIN (unphosphorylated, WT) (UniProt O60260). The experiment in a line: SEC-MALS. Background: Size exclusion chromatography separates by hydrodynamic size, large species first.
The target is the same in test [4]. Kind of test: ITC. (In ITC the heat of successive injections is recorded.)

A word on the Kd: it is the equilibrium constant for the complex coming apart. A high value points to lower affinity. In general, stoichiometry N refers to the number of molecules, sites or subunits per partner or assembly. Take “p-UB (PINK1-phosphorylated UB) (from UniProt P0CG48 1-76) (natural protein)”: the Kd in test [1] was 411 nM; in test [2] it was 140 to 158 nM; in test [4], 366 nM. The substance further gave a stoichiometry N in test [3] of 1.

Values taken from paper PMC4254048.
